From PubChem BioAssay AID540329 (Sanford-Burnham Center for Chemical Genomics, 2011) come the findings set out here.

Chains of the proteins cited; added tags and fusions are not shown. Residues count along the entry.
UniProt Q9GZU7, 76-261 limits assumed: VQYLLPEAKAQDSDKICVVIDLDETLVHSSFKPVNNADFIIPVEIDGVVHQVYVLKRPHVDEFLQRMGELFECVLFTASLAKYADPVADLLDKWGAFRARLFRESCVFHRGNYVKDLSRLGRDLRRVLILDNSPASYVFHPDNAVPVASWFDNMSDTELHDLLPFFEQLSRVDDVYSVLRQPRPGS

Structures are written as SMILES. Only a part is listed here, and it is no random draw. The source made the active and inactive calls.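 Rule for the calls: active = substances whose mean melting-temperature shift, as a percentage of the reference inhibitor's shift, reaches about 5.3% (limit read from the data); inactive = the rest.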

This experiment deals with Carboxy-terminal domain RNA polymerase II polypeptide A small phosphatase 1 (Homo sapiens) (UniProt Q9GZU7). The experiment is described as follows: Scp-1 binding by thermal shift, confirmation, orthogonal assay for Scp-1 inhibitor project, biophysical, differential scanning fluorimetry (AID 540329).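 Note: 0% = Tm of DMSO wells and 100% = Tm with sodium orthovanadate.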 Conditions: Recombinant SCP1, Sypro Orange thermal shift Tm; at 40 µM; hits give high values. Put shortly:
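Technique: Protein melting followed by Sypro Orange dye fluorescence | Material: Scp-1 phosphatase domain | Input: Scp-1 protein added from a 10 µM stock solution | Measure: Melting temperature shift relative to vanadate | Times: 20-95 °C thermal ramp | Doses: One dose per compound, 10 mM stock | Benchmarks: Vanadate reference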
As to `O=C1C(O)=C([N+](=O)[O-])C(=O)C(O)=C1[N+](=O)[O-]`, the thermal shift relative to vanadate control was inactive: 3.02%.
